## Binding of CDR-mutated scFvs to a peptide of the spike HR2 region

The target is the same throughout: PDVDLGDISGINAS, from the HR2 region of SARS-CoV-2 spike.

Parent scFv Ab-95: VH joined to VL by three GGGGS repeats. Changes lie in the light chain CDRs alone.
VH: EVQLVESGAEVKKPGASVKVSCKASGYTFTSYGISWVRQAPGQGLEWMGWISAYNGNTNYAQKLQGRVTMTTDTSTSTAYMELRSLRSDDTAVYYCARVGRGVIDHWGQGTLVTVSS
VL: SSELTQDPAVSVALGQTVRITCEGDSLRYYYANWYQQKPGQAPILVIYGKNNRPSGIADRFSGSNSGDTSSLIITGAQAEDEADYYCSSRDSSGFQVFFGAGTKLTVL

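The starting antibody came from a phage panning campaign against this peptide. Library AAYL52 holds single substitutions and randomly drawn double and triple substitutions in the CDRs. Affinity was read by AlphaSeq, a pooled yeast mating assay with surface-displayed partners. The frequency of each diploid, read from paired DNA barcodes, reflects how well the two displayed proteins bind. The ratio of observed to expected reads was calibrated, replicate by replicate, on BCL2-family standards whose Kd was known from biolayer interferometry. Each pool was mated in three replicate cultures.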

Variants are written as CDR1, CDR2 and CDR3 of the light chain (limits as in the source). Parent: EGDSLRYYYAN, GKNNRPS, SSRDSSGFQVF. Kd is apparent (estimated from mating counts) and averaged on the log scale over replicates with a signal. Smaller is tighter. "no signal" means that the variant was in the library but no mating with the target was seen in any replicate; the authors take this as a sign of poor binding, and no number exists. Empty control strains, which show no peptide, gave a signal in 28% of pairings with library AAYL52; the median was 8.2 µM and 95% of these signals were weaker than 800 nM. No background was subtracted. In this assay the parent's reference entry averaged 200 nM; its copy inside this library read 180 nM.

CDR-L1,CDR-L2,CDR-L3,apparent Kd,replicates with signal
EGDALRYYYAD,GKNNRPS,SSRDSSGFQTF,650 nM,2 of 3
EGDSLRYYYAN,GKRNNPS,SSPDSSGFQVF,170 µM,2 of 3
EGDSLWYYYAA,GKNNRPS,SSRHSSGFQVF,8.3 µM,1 of 3
EGDSLRYYYAN,GKVNRPY,SSRDSSGMQVF,3.8 µM,3 of 3
EGDSLRYYHSN,GKNNRPS,SSRDSSGFQVF,190 nM,3 of 3
EGDSLRYYYGN,GKNNRPS,GVRDSSGFQVF,1.6 µM,3 of 3
EGDSLRYYYAN,GKNNQPS,SSRDSSVFQVK,no signal,0 of 3
EGDSLRYYYAN,GKFNRPS,CSRDSSGFQPF,6.9 µM,1 of 3
EGDSLRYYQAN,KKTNRPS,SSRDSSGFQVF,2.1 µM,2 of 3
EGDSLRLYYAN,GKNNRPS,SPRDSSGFQYF,1.8 µM,2 of 3
EGDSLRYYYAN,GKNNRTS,QSRDSSGAQVF,1.8 µM,3 of 3
EGDSLRYYYAN,GKNNVWS,SSRDSSGFQVF,6.1 µM,3 of 3
EGRSLRYYYAN,GKNNRPS,SSRDNSGFQVH,290 nM,3 of 3
EGDSLRYYYPN,GRNCRPS,SSRDSSGFQVF,550 nM,3 of 3
EGDSLRYYYAN,IKNNRPS,SSRDESGFQLF,81 µM,1 of 3
EGDSLRYYYAN,GKNWFPS,SLRDSSGFQVF,no signal,0 of 3
EGDSNPYYYAN,GKNLRPS,SSRDSSGFQVF,74 nM,3 of 3
NGDSLRYYYAN,GKNNVPS,SSRDSSGFQVF,250 nM,3 of 3
EGDSLRYYYAF,GKNNRPS,SSCDSSWFQVF,2.0 µM,3 of 3
EGDSLRYYYEN,GKNFRPS,SSIDSSGFQVF,5.6 µM,1 of 3
EGDSLRYYYAN,GKNNCPS,QSRDSSGGQVF,64 µM,1 of 3
EGDSLRMYYAN,GKNNRPS,SSRWSSGFQWF,240 nM,3 of 3
EGDSLRYYYAN,CKNNRPS,HSRDSSKFQVF,34 µM,1 of 3
EGDSLRYHYAN,GKNNRPS,SYRDSSGFQVF,130 nM,3 of 3
EGYSLRYYYAN,GKNNRPS,SSRDSHGFQMF,810 nM,1 of 3
EMDSRRYYYAN,GKNNRPS,SSRDESGFQVF,1.7 µM,2 of 3
EGDSLRYYYAN,GKNNRPS,SNVDSSGFQVS,55 µM,2 of 3
EGDSLRYYYNN,GKNPRPY,SSRDSSGFQVF,no signal,0 of 3
EGDSLFYYFAN,GKNNIPS,SSRDSSGFQVF,18 µM,2 of 3
EGDSIRYYAAN,GWNNRPS,SSRDSSGFQVF,780 nM,3 of 3
PGDSLRYYYAN,GKNNRPS,SSVDSIGFQVF,15 µM,1 of 3
EGDLLRYYYAN,GKNNRPS,SGRDSSGFQVF,1.1 µM,3 of 3
EGQSLRYYYAN,GKANRPS,NSRDSSGFQVF,650 nM,3 of 3
EMDSLRYYYAN,DKNNRPS,LSRDSSGFQVF,14 µM,2 of 3
EADSLSYYYAN,GKNNRPS,SSRDMSGFQVF,13 µM,3 of 3

The remaining entries, values ahead:

apparent Kd,replicates with signal,CDR-L1,CDR-L2,CDR-L3
no signal,0 of 3,NGDSLRYYYAN,YKNNRPS,SSRDSSGFQVP
750 nM,1 of 3,EGDSLRYYYAN,GKANRPS,SSWFSSGFQVF
11 µM,3 of 3,EGDFLRYTYAN,GKPNRPS,SSRDSSGFQVF
no signal,0 of 3,EGDSLRYYYMN,GKNNRCS,SSRDSSGFQFF
58 µM,3 of 3,EGDSLSYYYAN,HKNNVPS,SSRDSSGFQVF
36 µM,2 of 3,EGDSLRYYYAN,GFNNRVS,SSPDSSGFQVF
630 nM,3 of 3,EGDSVRCYYAN,GKNNRPS,SSRDSSGRQVF
110 µM,1 of 3,EGDSLRYYYAN,LKNNRPS,ISRRSSGFQVF
no signal,0 of 3,EGDSRRYYYAN,GKNNRPD,SSRDSSGFAVF
59 µM,2 of 3,EGDSLRYYYAC,GKNNRPS,SSRASSGFQSF
21 µM,3 of 3,EGDWSRYYYAN,GRNNRPS,SSRDSSGFQVF
18 nM,3 of 3,EGDSLRYTGAN,GKNNRPS,SSRDSSGFLVF
no signal,0 of 3,EGDSLRYYYAN,GKNNRPS,SCMDSSDFQVF
no signal,0 of 3,EGMSVRYYYAN,GKNNRPS,KSRDSSGFQVF
960 nM,3 of 3,EGDSLRYYYAN,GKNNRKM,ESRDSSGFQVF
160 nM,1 of 3,ELDSLRYYYAN,GKNNRPG,SSRDSSGFQVA
4.4 µM,3 of 3,EGDSLRYYYAN,GFNNRPS,SSRASSGGQVF
no signal,0 of 3,EGDSLRYYYAN,GKVNRPS,SSKDSSGFQSF
47 nM,3 of 3,EGDSLRWEYAN,GKNNRPS,SSRDNSGFQVF
320 nM,3 of 3,EGDSLRYYYAN,GRNNRPG,SSRDSSGFQVF
4.1 µM,2 of 3,EGDSLRYYYAN,GKNNRRS,SPRDSSGWQVF
970 nM,1 of 3,EGDSLRYYYAN,GKNNVPC,SLRDSSGFQVF
no signal,0 of 3,EGDSLRYPYAN,GKNNRPS,SSDDSSGYQVF
490 nM,3 of 3,EGDSLREYYAN,GKNNAPS,SSRDSSGRQVF
no signal,0 of 3,EGDSLRYYYAN,GKKNRPS,SSRISSGFQVF
19 µM,1 of 3,EGDSLRYYVAN,GKNNPPS,SSRDFSGFQVF
no signal,0 of 3,EGDSLRYYYAN,GKNNRFF,ESRDSSGFQVF
54 µM,1 of 3,EGDSLRYYYAN,GKNNRQS,SSVDSSGFQWF
130 nM,3 of 3,EGNSLRYYTAN,GKNNRPS,SSRDSSGFQVF
4.5 nM,3 of 3,HGDSLRYAYAN,GKNNRPS,SCRDSSGFQVF
16 µM,2 of 3,EGDDLRMYYAN,GKNNRPS,SSRDSSGFQVT
320 nM,3 of 3,EGDSLRYYYAN,GKNYRPS,SCRDSSGEQVF
710 nM,3 of 3,EADSLRYYYAN,GKNNRPS,SSRDSSGFQCF
9.3 µM,2 of 3,EGDSLRYYYAN,GKNNRHW,RSRDSSGFQVF
no signal,0 of 3,EIDSLRYYYAN,GKNNRPS,SSRDSSGMYVF
no signal,0 of 3,EGDSLRYYYQN,GKNNRPS,SSRDMSGFHVF

The first 9 variants above that were never detected:

CDR-L1,CDR-L2,CDR-L3,apparent Kd,replicates with signal
EGDSLRYYYAN,GKNNQPS,SSRDSSVFQVK,no signal,0 of 3
EGDSLRYYYAN,GKNWFPS,SLRDSSGFQVF,no signal,0 of 3
EGDSLRYYYNN,GKNPRPY,SSRDSSGFQVF,no signal,0 of 3
NGDSLRYYYAN,YKNNRPS,SSRDSSGFQVP,no signal,0 of 3
EGDSLRYYYMN,GKNNRCS,SSRDSSGFQFF,no signal,0 of 3
EGDSRRYYYAN,GKNNRPD,SSRDSSGFAVF,no signal,0 of 3
EGDSLRYYYAN,GKNNRPS,SCMDSSDFQVF,no signal,0 of 3
EGMSVRYYYAN,GKNNRPS,KSRDSSGFQVF,no signal,0 of 3
EGDSLRYYYAN,GKVNRPS,SSKDSSGFQSF,no signal,0 of 3

Data: MIT Lincoln Laboratory AlphaSeq set, Engelhart et al. 2022, doi:10.1038/s41597-022-01779-4, as distributed in FLAb.